# US6552087B1 (Abbott GmbH & Co. KG, priority 1999, dated 2003)
# Sequences of proteins named here, by UniProt entry; tags and fusion partners are left off.
# UniProt P31652, whole entry: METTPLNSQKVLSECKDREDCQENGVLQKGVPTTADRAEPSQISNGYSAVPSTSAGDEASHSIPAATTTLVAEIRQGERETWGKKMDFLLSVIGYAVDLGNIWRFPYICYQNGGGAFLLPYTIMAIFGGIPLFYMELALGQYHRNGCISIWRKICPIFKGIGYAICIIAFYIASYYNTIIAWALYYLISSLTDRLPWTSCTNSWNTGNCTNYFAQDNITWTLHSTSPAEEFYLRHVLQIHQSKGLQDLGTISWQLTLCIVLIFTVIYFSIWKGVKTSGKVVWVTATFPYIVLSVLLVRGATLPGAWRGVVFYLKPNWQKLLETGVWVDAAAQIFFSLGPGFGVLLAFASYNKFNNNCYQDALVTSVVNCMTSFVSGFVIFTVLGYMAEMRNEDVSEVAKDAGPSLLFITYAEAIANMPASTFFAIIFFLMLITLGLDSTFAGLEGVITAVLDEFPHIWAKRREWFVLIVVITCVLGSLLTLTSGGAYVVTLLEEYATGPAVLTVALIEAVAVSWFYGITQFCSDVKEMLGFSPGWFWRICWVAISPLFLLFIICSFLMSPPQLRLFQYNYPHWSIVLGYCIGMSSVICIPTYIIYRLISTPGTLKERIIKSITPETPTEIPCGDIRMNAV
# Counter-ions that a name gives are not always drawn.
# Assays:
# [1] = target: T1, 5-HT reuptake site (Rattus norvegicus, UniProt P31652); assay: biochemical
# [2] = target: T1, 5-HT reuptake site; conditions: rat frontal cortex, [3H]paroxetine; mean ± SEM
structure (smiles),measurement,setting,value
"CC(C)CC(N(C)C)C1(c2ccc(Cl)cc2)CCC1 (racemic) [Sibutramine, N,N-dimethyl-1-[1-(4-chlorophenyl)cyclobutyl]-3-methylbutylamine]",Ki,[1],2140 ± 137 nM
same,"Hill slope, 5-HT reuptake site",[2],[1.262 ± 0.05]
"CC(C)C[C@@H](N(C)C)C1(c2ccc(Cl)cc2)CCC1 [(+)-Sibutramine, hydrochloride]",Ki,[1],2270 ± 263 nM
same,"Hill slope, 5-HT reuptake site",[2],[0.99 ± 0.03]
"CC(C)C[C@H](N(C)C)C1(c2ccc(Cl)cc2)CCC1.Cl [(−)-Sibutramine, (−)-N-{1-[1-(4-chlorophenyl)cyclobutyl]-3-methylbutyl}-N,N-dimethylamine hydrochloride]",Ki,[1],944 ± 112 nM
same,"Hill slope, 5-HT reuptake site",[2],[1.10 ± 0.03]
